Assay results reported in patent US7964616B2, “Compounds 679” (AstraZeneca AB, priority 2007, dated 2011).

Protein sequences, listed by entry. Tags and fused reporters are not part of them.
UniProt Q12809, whole entry: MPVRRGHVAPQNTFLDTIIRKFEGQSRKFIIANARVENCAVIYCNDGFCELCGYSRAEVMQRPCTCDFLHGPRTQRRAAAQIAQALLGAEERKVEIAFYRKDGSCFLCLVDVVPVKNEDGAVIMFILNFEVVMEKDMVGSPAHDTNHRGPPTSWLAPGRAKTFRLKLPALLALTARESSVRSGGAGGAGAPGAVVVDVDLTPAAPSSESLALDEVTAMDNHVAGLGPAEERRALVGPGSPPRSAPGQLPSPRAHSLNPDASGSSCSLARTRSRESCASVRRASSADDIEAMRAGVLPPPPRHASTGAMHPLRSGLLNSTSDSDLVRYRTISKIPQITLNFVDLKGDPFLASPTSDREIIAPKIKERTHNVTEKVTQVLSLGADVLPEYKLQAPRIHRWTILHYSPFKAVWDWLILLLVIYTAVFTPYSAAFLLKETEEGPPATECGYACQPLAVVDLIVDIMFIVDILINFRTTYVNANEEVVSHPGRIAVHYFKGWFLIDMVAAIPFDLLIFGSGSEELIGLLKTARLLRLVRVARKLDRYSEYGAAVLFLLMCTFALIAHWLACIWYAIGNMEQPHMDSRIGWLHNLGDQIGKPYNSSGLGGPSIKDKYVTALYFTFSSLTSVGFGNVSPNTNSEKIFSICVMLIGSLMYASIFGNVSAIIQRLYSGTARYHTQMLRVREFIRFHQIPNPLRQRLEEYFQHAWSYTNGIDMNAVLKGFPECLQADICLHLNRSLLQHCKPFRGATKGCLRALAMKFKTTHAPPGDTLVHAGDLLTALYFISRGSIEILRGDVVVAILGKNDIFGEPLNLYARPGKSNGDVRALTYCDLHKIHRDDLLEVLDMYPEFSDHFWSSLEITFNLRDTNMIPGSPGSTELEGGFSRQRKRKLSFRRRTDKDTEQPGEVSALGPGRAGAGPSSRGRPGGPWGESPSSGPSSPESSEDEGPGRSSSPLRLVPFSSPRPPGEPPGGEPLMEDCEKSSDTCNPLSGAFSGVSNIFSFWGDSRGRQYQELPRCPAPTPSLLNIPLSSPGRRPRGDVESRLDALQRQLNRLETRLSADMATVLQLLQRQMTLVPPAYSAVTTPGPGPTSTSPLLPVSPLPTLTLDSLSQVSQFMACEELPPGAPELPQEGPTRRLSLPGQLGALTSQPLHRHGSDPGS
UniProt Q99572, whole entry: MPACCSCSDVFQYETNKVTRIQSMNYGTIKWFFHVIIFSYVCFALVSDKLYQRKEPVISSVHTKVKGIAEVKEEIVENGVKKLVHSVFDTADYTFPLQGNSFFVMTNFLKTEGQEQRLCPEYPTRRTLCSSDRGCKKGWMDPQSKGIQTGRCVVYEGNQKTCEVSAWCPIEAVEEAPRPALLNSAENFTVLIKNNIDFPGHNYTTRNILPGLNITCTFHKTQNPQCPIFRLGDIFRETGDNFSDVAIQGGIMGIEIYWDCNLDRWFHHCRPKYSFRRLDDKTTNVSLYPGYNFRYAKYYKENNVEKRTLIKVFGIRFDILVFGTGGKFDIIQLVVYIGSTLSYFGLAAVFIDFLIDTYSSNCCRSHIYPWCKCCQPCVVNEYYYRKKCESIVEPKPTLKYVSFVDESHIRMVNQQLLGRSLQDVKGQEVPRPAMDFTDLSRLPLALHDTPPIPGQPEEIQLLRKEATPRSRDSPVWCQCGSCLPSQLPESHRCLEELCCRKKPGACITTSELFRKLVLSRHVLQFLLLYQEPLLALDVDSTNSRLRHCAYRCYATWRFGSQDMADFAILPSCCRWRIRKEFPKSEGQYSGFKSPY

Legend:
[1] = biological target: ion channel subunit encoded by the human ether-a-go-go-related gene (hERG) (Homo sapiens, UniProt Q12809); experiment: hERG binding protocol (radioligand competition, HEK cell membranes expressing hERG); conditions: for hERG pIC50: a 'less than' figure indicates <50% inhibition at the quoted concentration, the highest tested; for P2X7:hERG Ratio: ratio of P2X7:hERG affinity; for IC50: read-out: hERG IC50, radioligand binding, HEK membranes expressing hERG
Experimental: The hERG assay was performed according to the procedure described in WO2005/037052. The affinity (pIC50) of compounds for the ion channel subunit encoded by the human ether-a-go-go-related gene (hERG) gene was determined by competition binding of radioligand 3,7-Bis[2-(4-nitro[3,5-^3H]phenyl)ethyl]-3,7-diazabicyclo[3.3.1]nonane to HEK (human embryonic kidney) cell membranes expressing hERG, in a filter wash format.
Membranes were incubated for 3 hours at room temperature with serial dilutions of the test compounds, radioligand 3,7-Bis[2-(4-nitro[3,5-^3H]phenyl)ethyl]-3,7-diazabicyclo[3.3.1]nonane at 1 nM final concentration, and assay buffer (10 mM HEPES, 130 mM NaCl, 5 mM KCl, 1 mM EGTA, 0.8 mM MgCl2, pH 7.4). The assay was conducted in a final volume of 200 μL, in the presence of 1% (v/v) dimethyl sulphoxide. Non-specific binding was determined by measuring the binding of 3,7-Bis[2-(4-nitro[3,5-^3H]phenyl)ethyl]-3,7-diazabicyclo[3.3.1]nonane in the presence of 10 […]. During this incubation GF/B filter plates were immersed in coating solution 0.3% (v/v) Polyethylenimine and 0.2% (w/v) BSA). Following incubation assay plates were harvested onto precoated GF/B filter plates using a Tomtec harvester.
The pIC50, defined as the negative logarithm of the concentration of compound required for 50% reduction in 3,7-Bis[2-(4-nitro[3,5-^3H]phenyl)ethyl]-3,7-diazabicyclo[3.3.1]nonane binding, was determined. A ‘less than’ figure indicates <50% inhibition at the quoted concentration, this being the highest concentration tested.

P2X7 receptor = P2X7 receptor (Homo sapiens, UniProt Q99572); experiment: P2X7 assay (bbATP-induced ethidium bromide fluorescence in THP-1 cells); conditions: for P2X7 pIC50: 10^-5M bbATP agonist, ethidium bromide fluorescence
Text: Certain compounds such as benzoylbenzoyl adenosine triphosphate (bbATP) are known to be agonists of the P2X7 receptor, effecting the formation of pores in the plasma membrane (Drug Development Research (1996), 37(3), p. 126). Consequently, when the receptor is activated using bbATP in the presence of ethidium bromide (a fluorescent DNA probe), an increase in the fluorescence of intracellular DNA-bound ethidium bromide is observed. The increase in fluorescence can be used as a measure of P2X7 receptor activation and therefore to quantify the effect of a compound on the P2X7 receptor.
In this manner, each of the title compounds of the Examples was tested for antagonist activity at the P2X7 receptor. Thus, the test was performed in 96-well flat bottomed microtitre plates, the wells being filled with 250 μl of test solution comprising 200 μl of a suspension of THP-1 cells (2.5×10^6 cells/ml) containing 10^−4M ethidium bromide, 25 μl of a high potassium buffer solution containing 10^−5M bbATP, and 25 μl of the high potassium buffer solution containing concentrations of test compound typically from 30 μM-0.001 μM. The plate was covered with a plastics sheet and incubated at 37° C. for one hour. The plate was then read in a Perkin-Elmer fluorescent plate reader, excitation 520 nm, emission 595 nm, slit widths: Ex 15 nm, Em 20 nm. For the purposes of comparison, bbATP (a P2X7 receptor agonist) and pyridoxal 5-phosphate (a P2X7 receptor antagonist) were used separately in the test as controls. From the readings obtained, a pIC50 figure was calculated for each test compound, this figure being the negative logarithm of the concentration of test compound necessary to reduce the bbATP agonist activity by 50%.

[2] = read-out: P2X7 IC50, bbATP agonist

Row | P2X7 pIC50 (P2X7 receptor) | IC50 (P2X7 receptor; [2]) [µM] | P2X7 pIC50 (P2X7 receptor; tested form: HCl) | IC50 (P2X7 receptor; read-out: P2X7 IC50, bbATP agonist, tested form: HCl) [µM] | SMILES | hERG pIC50 [1] | P2X7:hERG Ratio [1] | IC50 [1] [µM] | hERG pIC50 ([1]; tested form: HCl) | P2X7:hERG Ratio ([1]; tested form: HCl) | IC50 ([1]; tested form: HCl) [µM]
1 | 7.2 | 0.063 |  |  | O=C(CC1CCCCC1)Nc1c(Cl)ccc2nc(N3CC[C@H](O)C3)ccc12 | 4.5 | 502 | 32 |  |  | 
2 | 7.9 | 0.013 |  |  | N[C@H]1CCN(c2ccc3c(C(=O)NCC4CCCCC4)c(Cl)ccc3n2)C1 | 4.9 | 1000 | 13 |  |  | 
3 |  |  | 7.5 | 0.032 | O=C(NCC1CCCCC1)c1c(Cl)ccc2nc(N3CC[C@H](NCCO)C3)ccc12 |  |  |  | 4.9 | 398 | 13
4 | 8.2 | 0.006 |  |  | O=C(CC1CCCCC1)Nc1c(Cl)ccc2nc(N3CC[C@H](NCCO)C3)ccc12 | 5.1 | 1258 | 8 |  |  | 

Where two headings read alike, the source gives them in different places.
